High-throughput results: PubChem, ICCB-Longwood Screening Facility, Harvard Medical School
The full list was thinned out, with hits kept by preference.
HCMV NEC inh: disrupts HCMV UL50-UL53 complex binding. HTRF UL50-UL53 interaction, normalized percent inhibition. inhibition, % (test concentration not listed). 0.15% of 190,000 active; in the data active = inhibition above about 27%, passing the limit was not always enough
GIV Gai3 FP: inhibitors of GIV GBA-motif binding to rat Galpha-i3. actives 0.42% (n = 210,000). Galpha-i3/FITC-GIV peptide fluorescence polarization, 90 min; active compounds read low; scaled: aluminum fluoride 0%, vehicle 100%. AID 1224905. percent of control (FP), % (no concentration beside the values). P08753;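 active means replicate mean at 85% of control or lower, very high polarization wells dropped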;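 further: wells of about 15 µL received 100 nL stock; the first replicate is given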
Starred values were filed as active, the others as inactive; nt = no result.

(1) CN1CCc2c(sc3c2C(=O)NC(c2ccc(OC(=O)c4ccccc4)cc2)N3)C1 (centres undefined)
  HCMV NEC inh = -122.7; GIV Gai3 FP = 23.1*

(2) O=C(CC1CCN(C(=O)c2cn(-c3ccccc3)nc2-c2ccccc2)CC1)Nc1ccc(F)cc1
  HCMV NEC inh = nt; GIV Gai3 FP = 101.8

(3) CC(C)CCNC(=O)C1CCCN1C(=O)c1ccc(NS(=O)(=O)c2ccc(F)cc2)cc1 (centres undefined)
  HCMV NEC inh = nt; GIV Gai3 FP = 104.1

(4) Cc1ccc(C(=O)O)cc1-n1c(C)ccc1-c1ccccc1
  HCMV NEC inh = 6.5; GIV Gai3 FP = 102.9

(5) Cc1cc(C(=O)O)ccc1-n1c(C)ccc1C
  HCMV NEC inh = 34.3*; GIV Gai3 FP = 96.8

(6) CC(C)/C=C1\CC/C(=C\c2ccc(Cl)cc2)C1=O
  HCMV NEC inh = nt; GIV Gai3 FP = 102.6

(7) CCN(CC)c1ccc(/C=C2\CC/C(=C\C(C)C)C2=O)cc1
  HCMV NEC inh = -42.6; GIV Gai3 FP = -87.6*

(8) COc1ccc(N=Cc2ccc(N(C)CCC#N)cc2)cc1
  HCMV NEC inh = -30.1; GIV Gai3 FP = 101.6

(9) CN(CCC#N)c1ccc(/C=C2\CC/C(=C\c3ccc(N(C)CCC#N)cc3)C2=O)cc1
  HCMV NEC inh = -52.9; GIV Gai3 FP = -40.8*

(10) c1cncc(CSc2nnc3ccc(-c4ccncc4)nn23)c1
  HCMV NEC inh = -87.3; GIV Gai3 FP = 105.1

(11) S=c1[nH]n(-c2ccc(Cl)cc2)c(=S)s1
  HCMV NEC inh = -27.5; GIV Gai3 FP = 101.1

(12) Nc1ccc(-c2nc3ccccc3s2)cc1
  HCMV NEC inh = -35.1; GIV Gai3 FP = nt

(13) Nc1ncc(-c2nc3ccccc3s2)c(N)n1
  HCMV NEC inh = -13.8; GIV Gai3 FP = -55.4*

(14) CC(C)C/C=C/C=C\C(=O)N[C@@H](CC(N)=O)C(=O)N[C@@H]1C(=O)N[C@H](c2ccc(O)cc2)C(=O)N[C@H](CCCN)C(=O)N[C@H]([C@H](C)O)C(=O)N[C@@H](c2ccc(O)cc2)C(=O)N[C@H](c2ccc(O)cc2)C(=O)N[C@@H]([C@H](C)O)C(=O)N[C@@H](Cc2ccccc2)C(=O)N[C@H](CCCN)C(=O)N[C@@H](c2ccc(O[C@@H]3O[C@H](CO)[C@H](O)[C@@H](O)[C@@H]3O[C@@H]3O[C@H](CO)[C@@H](O)[C@H](O)[C@H]3O)cc2)C(=O)NC(C(C)O)C(=O)N[C@@H](c2ccc(O)cc2)C(=O)NCC(=O)N[C@@H](CC(C)C)C(=O)N[C@H](C)C(=O)N[C@@H](c2ccc(O)c(Cl)c2)C(=O)O[C@@H]1C(N)=O (some centres undefined)
  HCMV NEC inh = -23.6; GIV Gai3 FP = nt

(15) Cc1nc2[nH]n(-c3ccccc3)c(=O)c2c(C)c1CCC(=O)Nc1ccccc1
  HCMV NEC inh = -52.9; GIV Gai3 FP = 104.9

(16) COc1ccc(OC)c(NS(=O)(=O)c2cc3c(cc2Cl)N(C(C)=O)CCO3)c1
  HCMV NEC inh = nt; GIV Gai3 FP = 105.2

(17) Cc1ccc(C)c(OCCCC(=O)Nc2ccc(N3CCOCC3)cc2)c1
  HCMV NEC inh = 92.1*; GIV Gai3 FP = 101.5

(18) Cc1ccc(NC(=O)CS(=O)CC(=O)Nc2ccc(N3CCOCC3)cc2)cc1Cl (centres undefined)
  HCMV NEC inh = -7.0; GIV Gai3 FP = 98.5

(19) COC(=O)c1ccc(COc2ccc(C3NC(C(=O)O)CS3)cc2OC)o1 (centres undefined)
  HCMV NEC inh = 3.7; GIV Gai3 FP = 103.6

(20) Clc1ccc(Nc2nc(NCCN3CCOCC3)nc(Nc3ccc(Cl)cc3)n2)cc1
  HCMV NEC inh = 1.0; GIV Gai3 FP = nt

(21) Cc1ccc(/C=C2\SC(=O)N(c3ccccc3)C2=O)o1
  HCMV NEC inh = -5.2; GIV Gai3 FP = 104.0

(22) O=C1S/C(=C\c2ccc(N3CCOCC3)o2)C(=O)N1c1ccccc1
  HCMV NEC inh = nt; GIV Gai3 FP = -42.3*

(23) COc1cccc(/C=N/NC(=O)c2oc3nc(-c4ccccc4)cc(-c4ccco4)c3c2N)c1
  HCMV NEC inh = -31.6; GIV Gai3 FP = -53.5*

(24) NNC(=O)c1oc2nc(-c3ccccc3)cc(-c3ccccc3)c2c1N
  HCMV NEC inh = -68.4; GIV Gai3 FP = 104.8

(25) COc1ccc(N2CCN(S(=O)(=O)c3ccc4c(c3)C(C(C)C)C(=O)N4)CC2)cc1 (centres undefined)
  HCMV NEC inh = nt; GIV Gai3 FP = 103.1

(26) Nc1ccc2nc3c(=O)[nH]c(=O)[nH]c3nc2c1
  HCMV NEC inh = nt; GIV Gai3 FP = 17.5*

(27) O=c1[nH]c(=O)c2nc3c(ccc4nsnc43)nc2[nH]1
  HCMV NEC inh = nt; GIV Gai3 FP = 120.3

(28) O=C(O)CNC(=O)c1nc2ncccn2n1
  HCMV NEC inh = -1.4; GIV Gai3 FP = 100.6

(29) Cn1c(=O)c2nc3ccc(N)cc3nc2n(C)c1=O
  HCMV NEC inh = nt; GIV Gai3 FP = 18.9*

(30) Cn1c(=O)c2nc3ccc(NC(=O)c4ccccc4)cc3nc2n(C)c1=O
  HCMV NEC inh = nt; GIV Gai3 FP = 110.1

(31) C=CCNc1nc(C(=O)OCC(=O)N2CCCC2=O)cs1
  HCMV NEC inh = -12.7; GIV Gai3 FP = nt

(32) O=C1C(c2c(O)[nH]c3ccccc23)=Nc2ccccc21
  HCMV NEC inh = -14.6; GIV Gai3 FP = nt

(33) O=C1c2ccccc2-[n+]2ccc3c([nH]c4ccccc43)c21
  HCMV NEC inh = 60.8*; GIV Gai3 FP = nt

(34) CCO/C=C(\C#N)C(=O)Nc1ccc(F)c(Cl)c1
  HCMV NEC inh = -33.1; GIV Gai3 FP = 104.9

(35) COc1ccc(C2=CC(C3CC3)=C(C#N)C(=C(C#N)C#N)N2)cc1
  HCMV NEC inh = -65.2; GIV Gai3 FP = 65.2*

(36) CN(C)c1ccc(C2=CC(C3CC3)=C(C#N)C(=C(C#N)C#N)N2)cc1
  HCMV NEC inh = 10.6; GIV Gai3 FP = 104.9

(37) CCC(=O)N1N=C(c2ccccc2)CC1c1cc2cc(OC)ccc2nc1Cl (centres undefined)
  HCMV NEC inh = nt; GIV Gai3 FP = 105.3

(38) O=C1NC(=O)N(C2CCCCC2)C(=O)/C1=C\c1ccc(-c2ccc(C(=O)O)cc2)o1
  HCMV NEC inh = -24.1; GIV Gai3 FP = 111.9

(39) CN(C)c1ccc(/C=C2\C(=O)NC(=O)N(C3CCCC3)C2=O)o1
  HCMV NEC inh = nt; GIV Gai3 FP = -41.6*

(40) Cc1oc(-c2cccc(Br)c2)nc1CSc1nc2ncccc2[nH]1
  HCMV NEC inh = nt; GIV Gai3 FP = 98.2

(41) O=C1CN(C(=O)CSc2ncc(C(F)(F)F)cc2Cl)c2ccccc2N1
  HCMV NEC inh = -2.1; GIV Gai3 FP = nt

From entry 1 to 3, as listed above:
(1) CN1CCc2c(sc3c2C(=O)NC(c2ccc(OC(=O)c4ccccc4)cc2)N3)C1 (centres undefined)
  HCMV NEC inh = -122.7; GIV Gai3 FP = 23.1*

(2) O=C(CC1CCN(C(=O)c2cn(-c3ccccc3)nc2-c2ccccc2)CC1)Nc1ccc(F)cc1
  HCMV NEC inh = nt; GIV Gai3 FP = 101.8

(3) CC(C)CCNC(=O)C1CCCN1C(=O)c1ccc(NS(=O)(=O)c2ccc(F)cc2)cc1 (centres undefined)
  HCMV NEC inh = nt; GIV Gai3 FP = 104.1
